Assay [1] addresses σ1 receptor (σ1R) (Rattus norvegicus, UniProt Q9R0C9). Nature of the assay: σ1R binding competition assay with [3H](+)-pentazocine. Conditions: read-out: σ1R Affinity (Ki), rat membrane homogenates, 37° C., 150 min, Ki from IC50 by Cheng-Prusoff, tested as the radiolabelled form.
Assay [2] deals with GluN2B subunit (Rattus norvegicus, UniProt P35439+Q00960). Description: GluN2B binding competition assay with [3H]ifenprodil. Particulars: tested as the radiolabelled form; for Selectivity (σ1R/GluN2B): ratio of Ki values σ1R/GluN2B; for Ki: read-out: GluN2B Affinity (Ki), rat membrane homogenates, [3H]ifenprodil, 25° C., 60 min, Ki from IC50 by Cheng-Prusoff.

Sequences of proteins named here, by UniProt entry; tags and fusion partners are left off. Residues count along the entry.
UniProt Q9R0C9, whole entry: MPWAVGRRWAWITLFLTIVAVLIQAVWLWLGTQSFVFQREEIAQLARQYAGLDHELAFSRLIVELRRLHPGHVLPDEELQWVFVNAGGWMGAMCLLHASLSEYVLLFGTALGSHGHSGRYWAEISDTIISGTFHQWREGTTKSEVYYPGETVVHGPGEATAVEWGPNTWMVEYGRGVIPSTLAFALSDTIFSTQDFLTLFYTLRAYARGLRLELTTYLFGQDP
UniProt Q00960, 27-1482 limits assumed: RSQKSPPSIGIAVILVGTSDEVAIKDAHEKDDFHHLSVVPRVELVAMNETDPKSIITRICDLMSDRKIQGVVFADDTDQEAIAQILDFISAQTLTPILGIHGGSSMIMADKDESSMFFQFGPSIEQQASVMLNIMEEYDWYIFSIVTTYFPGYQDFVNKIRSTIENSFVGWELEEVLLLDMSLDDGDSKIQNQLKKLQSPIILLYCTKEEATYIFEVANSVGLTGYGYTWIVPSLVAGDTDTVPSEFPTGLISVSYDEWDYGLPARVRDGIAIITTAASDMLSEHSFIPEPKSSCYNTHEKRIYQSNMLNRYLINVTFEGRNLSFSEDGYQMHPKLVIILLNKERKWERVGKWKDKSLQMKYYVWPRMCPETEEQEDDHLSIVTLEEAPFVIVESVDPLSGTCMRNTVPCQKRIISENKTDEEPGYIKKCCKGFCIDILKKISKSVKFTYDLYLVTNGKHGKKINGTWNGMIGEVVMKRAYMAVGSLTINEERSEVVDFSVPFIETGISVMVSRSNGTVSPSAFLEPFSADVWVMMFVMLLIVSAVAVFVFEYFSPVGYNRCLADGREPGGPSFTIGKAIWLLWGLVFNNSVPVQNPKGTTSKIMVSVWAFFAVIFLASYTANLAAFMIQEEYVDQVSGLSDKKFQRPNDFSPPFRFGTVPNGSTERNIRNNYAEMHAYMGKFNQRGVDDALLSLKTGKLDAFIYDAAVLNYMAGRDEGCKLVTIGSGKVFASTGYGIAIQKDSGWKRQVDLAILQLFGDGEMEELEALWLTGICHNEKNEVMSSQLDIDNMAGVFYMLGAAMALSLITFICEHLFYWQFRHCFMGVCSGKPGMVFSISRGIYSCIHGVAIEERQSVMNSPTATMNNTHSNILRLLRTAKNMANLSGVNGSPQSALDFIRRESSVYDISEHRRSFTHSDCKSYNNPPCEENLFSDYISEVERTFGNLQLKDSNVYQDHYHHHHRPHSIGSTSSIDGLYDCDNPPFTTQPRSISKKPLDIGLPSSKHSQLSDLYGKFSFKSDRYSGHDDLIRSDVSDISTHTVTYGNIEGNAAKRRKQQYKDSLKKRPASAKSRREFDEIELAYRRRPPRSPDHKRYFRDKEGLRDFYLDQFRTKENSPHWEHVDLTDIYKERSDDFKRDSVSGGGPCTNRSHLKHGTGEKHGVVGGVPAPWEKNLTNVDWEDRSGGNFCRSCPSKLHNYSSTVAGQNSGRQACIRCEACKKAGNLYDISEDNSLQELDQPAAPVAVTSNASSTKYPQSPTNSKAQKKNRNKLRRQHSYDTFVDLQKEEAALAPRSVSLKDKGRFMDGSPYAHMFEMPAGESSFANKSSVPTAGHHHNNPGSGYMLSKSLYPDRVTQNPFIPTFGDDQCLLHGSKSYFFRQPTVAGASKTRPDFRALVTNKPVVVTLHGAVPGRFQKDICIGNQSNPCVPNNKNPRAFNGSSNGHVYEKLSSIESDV

Consider 4 molecules from patent publication US20220118118A1, “BENZAZEPIN-L,7-DIOL-DERIVED RADIOLABELED LIGANDS WITH HIGH IN VIVO NMDA SPECIFICITY” (ETH ZURICH, priority 2018, published 2022).

As for `COc1ccc2c(c1)CCN(CCCCc1ccc(F)cc1)CC2O` (stereo not drawn), in assay [1], the Ki (commonly a measure of affinity in units of concentration, obtained from inhibition or displacement) amounted to 12 nM.

In the case of `Oc1ccc2c(c1)CCN(CCCCc1ccc(F)cc1)CC2O` (stereo not drawn), in assay [2], the Selectivity (σ1R/GluN2B) was determined as 52.1 and the Ki was 10.4 nM.

Take `COc1ccc2c(c1)CCN(CCCCc1ccccc1F)CC2O` (stereo not drawn): in assay [2], the Selectivity (σ1R/GluN2B) is 0.9.

With `Oc1ccc2c(c1)CCN(CCCCc1ccccc1F)CC2O` (stereo not drawn), in assay [2], the Selectivity (σ1R/GluN2B) is 39.6 and the Ki stood at 10.4 nM.
